Test results: article PMC11204507, “Mechanistic Insights into the Neurotoxicity of 2,5-Dimethoxyphenethylamines (2C) and Corresponding N-(2-methoxybenzyl)phenethylamine (NBOMe) Drugs” (Journal of Xenobiotics, 2024)

The chains behind the UniProt entries cited, without tags or fusion partners.
UniProt P21397, whole entry: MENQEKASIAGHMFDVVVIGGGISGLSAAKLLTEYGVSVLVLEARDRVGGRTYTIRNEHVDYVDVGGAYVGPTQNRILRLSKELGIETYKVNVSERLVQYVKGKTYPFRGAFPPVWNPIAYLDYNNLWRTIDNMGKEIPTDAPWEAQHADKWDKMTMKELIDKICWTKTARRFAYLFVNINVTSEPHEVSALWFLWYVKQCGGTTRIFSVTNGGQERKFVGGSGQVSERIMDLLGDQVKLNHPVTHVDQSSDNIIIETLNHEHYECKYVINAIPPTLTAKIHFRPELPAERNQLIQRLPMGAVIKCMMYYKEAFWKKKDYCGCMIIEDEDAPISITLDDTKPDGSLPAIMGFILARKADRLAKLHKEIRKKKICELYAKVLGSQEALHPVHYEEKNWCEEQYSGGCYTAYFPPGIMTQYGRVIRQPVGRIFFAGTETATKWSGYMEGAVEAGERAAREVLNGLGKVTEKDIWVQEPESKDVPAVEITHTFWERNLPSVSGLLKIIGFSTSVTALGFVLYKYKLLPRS

Target: hMAO-A (Homo sapiens, UniProt P21397)
Assay: hMAO inhibitory activity, kynuramine to 4-hydroxyquinoline
Settings: 10 µM, kynuramine substrate

C#CCN(C)CCCOc1ccc(Cl)cc1Cl [clorgyline, reference compound]
percentage of inhibition of hMAO-A: 98.2%
